Reference: ChEMBL document CHEMBL1130213, “Synthesis and pharmacological characterization of aminocyclopentanetricarboxylic acids: new tools to discriminate between metabotropic glutamate receptor subtypes” (J Med Chem, 1997)

Sequences of proteins named here, by UniProt entry; tags and fusion partners are left off. A change or cut given only in a name is not applied to a line headed by its entry.
UniProt Q13255: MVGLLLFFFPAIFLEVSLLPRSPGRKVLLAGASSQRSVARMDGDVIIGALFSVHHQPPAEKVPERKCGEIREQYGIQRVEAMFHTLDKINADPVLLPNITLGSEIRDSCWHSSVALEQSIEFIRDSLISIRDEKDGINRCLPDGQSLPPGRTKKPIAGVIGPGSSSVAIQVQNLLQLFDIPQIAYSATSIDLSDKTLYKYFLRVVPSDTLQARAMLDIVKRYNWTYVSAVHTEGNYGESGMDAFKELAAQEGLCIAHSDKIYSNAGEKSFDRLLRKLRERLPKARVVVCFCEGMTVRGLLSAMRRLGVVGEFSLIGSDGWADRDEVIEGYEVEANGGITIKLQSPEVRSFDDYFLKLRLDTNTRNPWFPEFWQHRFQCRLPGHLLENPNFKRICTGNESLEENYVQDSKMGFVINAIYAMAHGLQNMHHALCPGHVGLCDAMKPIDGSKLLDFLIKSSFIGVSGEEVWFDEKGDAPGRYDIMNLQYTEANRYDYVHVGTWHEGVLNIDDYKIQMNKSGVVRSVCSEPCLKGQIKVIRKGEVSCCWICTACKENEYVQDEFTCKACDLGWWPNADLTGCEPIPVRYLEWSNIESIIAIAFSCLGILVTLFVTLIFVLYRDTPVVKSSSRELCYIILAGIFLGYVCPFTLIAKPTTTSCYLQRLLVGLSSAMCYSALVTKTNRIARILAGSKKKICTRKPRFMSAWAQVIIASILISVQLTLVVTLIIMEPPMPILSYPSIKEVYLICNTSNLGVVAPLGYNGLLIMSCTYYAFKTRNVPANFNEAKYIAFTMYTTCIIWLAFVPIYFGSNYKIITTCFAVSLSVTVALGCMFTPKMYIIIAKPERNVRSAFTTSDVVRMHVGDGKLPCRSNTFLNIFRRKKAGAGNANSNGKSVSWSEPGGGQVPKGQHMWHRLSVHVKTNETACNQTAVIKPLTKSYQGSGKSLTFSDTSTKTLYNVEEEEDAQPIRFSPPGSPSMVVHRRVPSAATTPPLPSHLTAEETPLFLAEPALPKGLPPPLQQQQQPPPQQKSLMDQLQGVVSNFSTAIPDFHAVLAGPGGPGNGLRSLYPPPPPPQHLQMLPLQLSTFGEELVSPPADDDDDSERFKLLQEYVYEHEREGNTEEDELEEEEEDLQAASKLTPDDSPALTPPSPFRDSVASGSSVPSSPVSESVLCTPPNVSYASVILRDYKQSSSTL
UniProt Q14833: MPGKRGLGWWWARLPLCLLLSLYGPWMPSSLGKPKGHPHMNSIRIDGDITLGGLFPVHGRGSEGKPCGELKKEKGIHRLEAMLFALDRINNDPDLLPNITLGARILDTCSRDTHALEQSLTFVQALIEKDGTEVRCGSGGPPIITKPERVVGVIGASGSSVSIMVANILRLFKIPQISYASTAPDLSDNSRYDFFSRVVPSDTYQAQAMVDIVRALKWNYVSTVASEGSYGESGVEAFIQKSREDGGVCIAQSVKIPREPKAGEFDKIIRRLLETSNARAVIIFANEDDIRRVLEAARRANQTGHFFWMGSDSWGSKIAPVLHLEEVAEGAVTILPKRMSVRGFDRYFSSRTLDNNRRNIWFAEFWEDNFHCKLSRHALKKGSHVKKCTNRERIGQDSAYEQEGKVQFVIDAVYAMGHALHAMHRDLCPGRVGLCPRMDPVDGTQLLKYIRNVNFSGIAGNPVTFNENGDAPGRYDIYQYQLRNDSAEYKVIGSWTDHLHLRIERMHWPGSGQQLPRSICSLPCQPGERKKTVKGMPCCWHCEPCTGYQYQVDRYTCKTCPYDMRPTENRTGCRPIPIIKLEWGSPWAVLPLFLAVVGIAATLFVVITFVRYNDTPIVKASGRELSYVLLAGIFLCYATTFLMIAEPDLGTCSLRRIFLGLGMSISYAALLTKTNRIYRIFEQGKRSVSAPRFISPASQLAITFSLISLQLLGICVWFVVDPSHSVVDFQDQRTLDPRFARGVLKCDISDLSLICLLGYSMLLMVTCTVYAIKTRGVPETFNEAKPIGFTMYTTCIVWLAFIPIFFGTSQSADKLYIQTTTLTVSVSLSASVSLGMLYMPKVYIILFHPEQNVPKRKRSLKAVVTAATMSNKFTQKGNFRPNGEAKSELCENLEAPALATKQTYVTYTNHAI

How the values were obtained:
[1] = molecular target: Metabotropic glutamate receptor 1 (Homo sapiens, UniProt Q13255); assay: Agonist activity against Metabotropic glutamate receptor 1 expressed in HEK 293 cells was evaluated by measuring total inositol phosphate accumulation; assay type: functional, cell-based, HEK293
[2] = molecular target: Metabotropic glutamate receptor 4 (Homo sapiens, UniProt Q14833); assay: Agonist activity against Metabotropic glutamate receptor 4 expressed in HEK 293 cells was evaluated by measuring total inositol phosphate accumulation; assay type: functional, cell-based, HEK293

## N[C@]1(C(=O)O)CC[C@@H](C(=O)O)C1
[1]
  EC50: > 1000 µM

## N[C@@]1(C(=O)O)CC[C@H](C(=O)O)C1
[1]
  EC50: > 300 µM
[2]
  EC50: 48 µM

## N[C@@]1(C(=O)O)CC[C@@H](C(=O)O)C1
[1]
  EC50: 9.3 µM
[2]
  EC50: > 1000 µM

## N[C@]1(C(=O)O)CC[C@H](C(=O)O)C1
[1]
  EC50: 127 µM
[2]
  EC50: > 1000 µM
